The values below come from patent publication US20100189719A1 (published 2010).

Amino acid sequences for entries named in this document (tags omitted). Chains listed by the source or under a name are the forms on record and can include a tag or linker.
UniProt P15692, other isoform, or with tags, fused parts or gaps limits assumed: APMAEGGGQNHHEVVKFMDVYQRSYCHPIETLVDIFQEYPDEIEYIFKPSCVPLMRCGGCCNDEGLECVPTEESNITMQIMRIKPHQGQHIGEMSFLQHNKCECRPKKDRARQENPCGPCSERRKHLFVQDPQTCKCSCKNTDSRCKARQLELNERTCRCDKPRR

This assay addresses human VEGF (hVEGF) (human, UniProt P15692-4 27-191, limits assumed). As to the kind of experiment: kinetics of FIG. 32 (SPR); exponent as printed.

B1: G6-23 Fab (Fab, V domains shown)
VH: EVQLVESGGGLVQPGGSLRLSCAASGFTISDYWIHWVRQAPGKGLEWVAGITPAGGYTYYADSVKGRFTISADTSKNTAYLQMNSLRAEDTAVYYCARFVFFLPYAMDYWGQGTLVTVSS
VL: DIQMTQSPSSLSASVGDRVTITCRASQDVSTAVAWYQQKPGKAPKLLIYSASFLYSGVPSRFSGSGSGTDFTLTISSLQPEDFATYYCKQGYANPWTFGQGTKVEIKR
notes: also called Fab-G6-23; FabG6-23
The molecule B1 yielded a koff of 10000 s⁻¹.

By koff is commonly meant the rate constant with which the complex falls apart.
